The values below come from paper PMC5733478, “A Non-imaging High Throughput Approach to Chemical Library Screening at the Unmodified Adenosine-A3 Receptor in Living Cells” (Frontiers in Pharmacology, 2017).

Sequences of proteins named here, by UniProt entry; tags and fusion partners are left off.
UniProt P0DMS8, whole entry: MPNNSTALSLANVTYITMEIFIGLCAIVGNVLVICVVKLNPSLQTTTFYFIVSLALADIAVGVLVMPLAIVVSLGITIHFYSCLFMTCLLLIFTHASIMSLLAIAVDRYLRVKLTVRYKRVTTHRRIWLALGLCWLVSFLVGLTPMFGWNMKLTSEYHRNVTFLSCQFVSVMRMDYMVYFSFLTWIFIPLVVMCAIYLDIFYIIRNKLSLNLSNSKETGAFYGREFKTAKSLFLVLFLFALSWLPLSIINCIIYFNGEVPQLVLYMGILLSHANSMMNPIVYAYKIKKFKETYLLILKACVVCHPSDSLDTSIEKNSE
UniProt P30542, whole entry: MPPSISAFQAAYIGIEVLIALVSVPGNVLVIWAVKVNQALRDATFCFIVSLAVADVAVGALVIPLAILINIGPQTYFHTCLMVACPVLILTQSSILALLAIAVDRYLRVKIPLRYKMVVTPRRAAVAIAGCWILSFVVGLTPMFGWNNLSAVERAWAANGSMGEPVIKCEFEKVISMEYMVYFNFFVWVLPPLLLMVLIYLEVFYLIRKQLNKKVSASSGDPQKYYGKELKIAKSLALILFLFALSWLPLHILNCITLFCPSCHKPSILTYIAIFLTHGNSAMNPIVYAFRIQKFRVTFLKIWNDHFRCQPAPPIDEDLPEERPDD

Where a name gives a salt, the structure may show the parent alone.

The target in one test is human A3AR (Homo sapiens, UniProt P0DMS8). As to the kind of experiment: LOPAC library primary screen: single concentration (10 μM) inhibition of 25 nM CA200645 binding, PHERAstar FS.
Conditions: not given
JL-18: the “% 25 nM CA200645 binding” value came out at 96.2 ± 7.5%.
Still for that read-out and setting: then `Cc1cc(C(C)(C)C)c(O)c(C)c1CC1=NCCN1` [Oxymetazoline hydrochloride], with 103.9 ± 10.0%; and `O=C1NC(=O)C(c2ccccc2)(c2ccccc2)N1` [Phenytoin sodium], with 103.8 ± 12.2%; and `COc1cc(C(=O)OCCCN2CCCN(CCCOC(=O)c3cc(OC)c(OC)c(OC)c3)CC2)cc(OC)c1OC` [Dilazep hydrochloride], with 103.7 ± 12.7%.
`Cl.N=C(N)NC(=N)Nc1cccc(Cl)c1`: the “% 25 nM CA200645 binding” value is listed as 103.6 ± 13.0%.
The same measure, in the same setting: then `CCOC(=O)C1=C(C)NC(C)=C(C(=O)OCC)C1c1c(F)c(F)c(F)c(F)c1F` [Nemadipine-A], with 104.1 ± 11.6%; and `COc1ccccc1CNCCCCCCNCCCCCCCCNCCCCCCNCc1ccccc1OC.Cl.Cl.Cl.Cl` [Methoctramine tetrahydrochloride], with 103.6 ± 10.6%; and `C=CCc1ccccc1OCC(O)CNC(C)C` (stereo not shown) [Alprenolol hydrochloride], with 104.1 ± 15.8%.
The same measure, in the same setting: then `COc1ccc(CCN(C)CCc2ccc(OC)c(OC)c2)cc1OC.Cl` [YS-035 hydrochloride], with 103.5 ± 12.5%.
On to “Phenylbenzene-omega-phosphono-alpha-amino acid”, for which the “% 25 nM CA200645 binding” value came out at 96.2 ± 4.8%.
Turning to `NC(N)=NOCC[C@H](N)C(=O)O.O=S(=O)(O)O` [L-Canavanine sulfate], the “% 25 nM CA200645 binding” value was determined as 104.0 ± 8.6%.
The same measure, in the same setting: then `O=C(O)c1cccnc1C(=O)O` [Quinolinic acid], with 103.7 ± 10.0%; and `CC(C)NC[C@H](O)c1ccc(O)c(O)c1.O=C(O)C(O)C(O)C(=O)O` [R(-)-Isoproterenol (+)-bitartrate], with 103.8 ± 21.4%.
The same measure, in the same setting: then `COc1cc2c(c(OC)c1OC)-c1ccc(OC)c(=O)cc1[C@@H](NC(C)=O)CC2` [Colchicine], with 93.8 ± 5.1%; and `Nc1cc(=O)[nH]c(N)n1` [2,4-Diamino-6-pyrimidinone], with 104.1 ± 13.8%.
Regarding `Br.COc1ccc(-c2ccc(=N)n(CCCC(=O)O)n2)cc1` [SR-95531], the “% 25 nM CA200645 binding” value came to 103.5 ± 3.4%.
Turning to `CCCCC1C(=O)N(c2ccccc2)N(c2ccccc2)C1=O` [Phenylbutazone], the “% 25 nM CA200645 binding” value is 104.5 ± 10.1%.
On the same count and under the same terms, then LE 300, with 98.5 ± 4.5%; and `C[C@@]12N[C@@H](Cc3ccccc31)c1ccccc12.O=C(O)/C=C\C(=O)O` [(-)-MK-801 hydrogen maleate], with 104.1 ± 10.2%; and `C[C@]12CC[C@@H](O)C[C@@H]1CC[C@@H]1[C@@H]2CC[C@]2(C)[C@@H](C(=O)CO)CC[C@@H]12`, with 103.6 ± 6.1%.
Consider `CC/C(=C(\c1ccccc1)c1ccc(OCCN(C)C)cc1)c1ccccc1` [Tamoxifen citrate], for which the “% 25 nM CA200645 binding” value turned out to be 104.2 ± 20.7%.
`Cl.NCCc1ccc(S(=O)(=O)F)cc1`: the “% 25 nM CA200645 binding” value is 103.5 ± 4.8%.
The same measure, in the same setting: then `Nc1ccn([C@H]2CC[C@@H](CO)O2)c(=O)n1` [2',3'-dideoxycytidine], with 103.6 ± 6.0%.
Still for that read-out and setting: then `COc1ccc(NC(=O)c2ccc(-c3ccc(-c4noc(C)n4)cc3C)cc2)cc1N1CCN(C)CC1.Cl.O` [GR 127935 hydrochloride hydrate], with 104.2 ± 8.3%; and `CC1=C(CC(=O)O)c2cc(F)ccc2/C1=C\c1ccc([S+](C)[O-])cc1` (stereo not shown) [Sulindac], with 103.7 ± 16.6%; and `CC(CN(C)C)CN1c2ccccc2CCc2ccccc21` (stereo not shown) [Trimipramine maleate], with 104.3 ± 7.1%.
Still for that read-out and setting: then `Cc1nccc2c1[nH]c1ccccc12` [Harmane], with 104.5 ± 8.0%; and `C[N+]1(C)CCOC(O)(c2ccc(-c3ccc(C4(O)C[N+](C)(C)CCO4)cc3)cc2)C1` (stereo not shown) [Hemicholinium-3], with 104.5 ± 15.9%; and `CC(CCc1ccccc1)NC(C)C(O)c1ccc(O)cc1` (stereo not shown) [Nylidrin hydrochloride], with 103.7 ± 6.3%.
For the compound `COC(=O)N1CCN(C(=O)Cc2ccc(Cl)c(Cl)c2)C(CN2CCCC2)C1.O=C(O)/C=C/C(=O)O` (stereo not shown) [GR-89696 fumarate], the “% 25 nM CA200645 binding” value was determined as 104.3 ± 9.0%.
For the compound `CC(=O)Oc1cc(C(C)C)c(OCCN(C)C)cc1C` [Moxisylyte hydrochloride], the “% 25 nM CA200645 binding” value was found to be 103.5 ± 2.3%.
Regarding `N#C/C(=C\c1ccc(O)c(O)c1)C(N)=S` [Tyrphostin 47], the “% 25 nM CA200645 binding” value came to 104.0 ± 4.7%.
With `CC(N)(C(=O)O)c1ccc(C(=O)O)cc1` (racemic) [(±)-alpha-Methyl-4-carboxyphenylglycine], the “% 25 nM CA200645 binding” value was determined as 103.5 ± 10.0%.
Still for that read-out and setting: then `Cc1ccc(S(=O)(=O)N[C@@H](CCCCN)C(=O)CCl)cc1.Cl`, with 103.9 ± 14.0%; and `CC[C@@H]1C(=O)OC[C@@H]1Cc1cncn1C.Cl` [(+)-Pilocarpine hydrochloride], with 103.9 ± 1.7%; and `CCN(CC)CCOC(=O)c1ccc(N)cc1` [Procaine hydrochloride], with 104.5 ± 8.1%.
As to `CC1CNCCN1S(=O)(=O)c1cccc2cnccc12.Cl.Cl` (stereo not shown), the “% 25 nM CA200645 binding” value stood at 103.8 ± 5.9%.
Regarding `CCCCCC(O)CCCC(=O)O.[Na]` (stereo not shown) [5-hydroxydecanoic acid sodium], the “% 25 nM CA200645 binding” value is 104.0 ± 7.6%.
`CCN(CC)CC(=O)Nc1c(C)cccc1C` [Lidocaine hydrochloride]: the “% 25 nM CA200645 binding” value is 102.4 ± 8.9%.
On the same count and under the same terms, then `CCN(CC)CCn1c(=O)c(Cc2ccc(OC)cc2)nc2ccccc21.Cl` [Caroverine hydrochloride], with 104.5 ± 21.3%.
Still for that read-out and setting: then `CSc1ccccc1N1CCN(CCCCCC(=O)NC2CCCc3ccccc32)CC1` (stereo not shown) [LP44], with 103.8 ± 8.7%.
Same read-out and setting: then `C[C@](N)(Cc1ccc(O)cc1)C(=O)O` [L-alpha-Methyl-p-tyrosine], with 104.3 ± 4.3%.

The same test, now with this note: compounds tested at 10 µM; % of control wells (1% DMSO and 25 nM CA200645); whole live cells expressing the A3AR; mean ± SD, three experiments in duplicate.
Consider `COc1cc2c(cc1O)CC[C@@H]1[C@@H]2CC[C@]2(C)[C@@H](O)CC[C@@H]12` [2-methoxyestradiol], for which the “% 25 nM CA200645 binding” value worked out at 104.4 ± 10.2%.
`O=C(N[C@H]1CN2CCC1CC2)c1cc2ccoc2cn1` [PHA-543613]: the “% 25 nM CA200645 binding” value amounted to 103.8 ± 13.6%.
Still for that read-out and setting: then `CCN(CC)CCOCCOC(=O)C1(c2ccccc2)CCCC1` [Carbetapentane citrate], with 104.5 ± 6.7%.

A further test addresses T1, human A1AR (Homo sapiens, UniProt P30542).
T1 construct: expressed in transfected cells
As to the kind of experiment: HTS (PHERAstar FS) fluorescent ligand competition binding in live CHO cells, 25 nM CA200645 tracer. To be noted: CHO cells expressing A1AR, 25 nM CA200645, PHERAstar HTS assay, mean ± SEM.
On to `O=C(Cc1ccccc1)Nc1nc2ccc(Cl)cc2c2nc(-c3ccco3)nn12` [MRS1220], for which the “pKi A1AR CA200645” value is on record as 7.35 ± 0.19.
